Assay results taken from BindingDB's records for doi:10.1016/j.bmc.2013.02.056 (Ludwig-Maximilians-University Munich, 2013).

Molecular target: T1, Sodium- and chloride-dependent GABA transporter 3 (Mus musculus, UniProt P31650)
T1 sequence (P31650 whole entry): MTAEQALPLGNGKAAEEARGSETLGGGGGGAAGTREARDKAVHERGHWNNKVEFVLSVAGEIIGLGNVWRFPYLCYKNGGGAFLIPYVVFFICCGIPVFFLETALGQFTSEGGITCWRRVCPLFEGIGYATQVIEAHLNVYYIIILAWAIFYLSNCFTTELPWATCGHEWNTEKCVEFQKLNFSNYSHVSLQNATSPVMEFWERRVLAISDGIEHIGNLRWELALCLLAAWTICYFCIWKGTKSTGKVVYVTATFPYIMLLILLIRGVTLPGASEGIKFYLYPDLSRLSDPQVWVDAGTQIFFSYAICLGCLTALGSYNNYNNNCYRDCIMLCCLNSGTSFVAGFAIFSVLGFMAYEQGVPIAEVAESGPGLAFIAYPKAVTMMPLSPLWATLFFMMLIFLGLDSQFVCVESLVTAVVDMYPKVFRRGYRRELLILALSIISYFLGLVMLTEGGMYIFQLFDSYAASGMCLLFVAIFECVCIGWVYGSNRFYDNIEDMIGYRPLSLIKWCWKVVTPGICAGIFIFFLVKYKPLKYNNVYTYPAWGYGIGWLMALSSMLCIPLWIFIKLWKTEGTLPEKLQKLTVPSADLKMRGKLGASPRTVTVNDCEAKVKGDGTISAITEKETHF
Experiment: Inhibition of mouse GAT3 expressed in HEK cells assessed as inhibition of [3H]-GABA uptake after 25 mins by liquid scintillation counting analysis

IC50: 11.5 µM
Compound: NCCCC(=O)O [4-amino-n-[2,3-3H]butyric acid]
